Key:
[1] = system: CYP2D6; experiment: in vitro; conditions: human, microsomes
[2] = system: CYP3A4/5; experiment: in vitro; conditions: human, microsomes, HLM

CNCCC(Oc1ccc(C(F)(F)F)cc1)c1ccccc1 (centres unmarked) [Fluoxetine, fluoxetine]
inhibition at 30 min, 10 µM ([1]; % Inhibition of (R)-EDDP production, HLM): 23.8% | inhibition at 30 min, 10 µM ([1]; % Inhibition of (S)-EDDP production, HLM): 23.5% | inhibition at 30 min, 10 µM ([1]; Inhibition of (R)- and (S)-EDDP formation): < 30% | inhibition at 15 min, 10 µM ([2]; % Inhibition of (R)-EDDP production): 11.6% | inhibition at 15 min, 10 µM ([2]; % Inhibition of (S)-EDDP production): 12.1%
